Laboratory results: publication PMC11089503, “Exploring Subsite Selectivity within Plasmodium vivaxN-Myristoyltransferase Using Pyrazole-Derived Inhibitors” (Journal of Medicinal Chemistry, 2024)

Chains of the proteins cited; added tags and fusions are not shown.
UniProt A5K1A2, entry or part of it: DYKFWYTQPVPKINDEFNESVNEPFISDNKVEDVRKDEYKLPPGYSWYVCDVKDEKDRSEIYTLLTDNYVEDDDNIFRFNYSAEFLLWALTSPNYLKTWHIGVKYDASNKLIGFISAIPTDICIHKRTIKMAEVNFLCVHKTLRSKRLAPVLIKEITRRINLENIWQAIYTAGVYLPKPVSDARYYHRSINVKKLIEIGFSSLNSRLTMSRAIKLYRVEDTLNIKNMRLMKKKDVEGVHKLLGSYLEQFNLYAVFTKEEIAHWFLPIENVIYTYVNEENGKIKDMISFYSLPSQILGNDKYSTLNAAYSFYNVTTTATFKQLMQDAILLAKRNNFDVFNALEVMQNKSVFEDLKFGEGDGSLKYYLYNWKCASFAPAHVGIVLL

target: PvNMT (Plasmodium vivax, UniProt A5K1A2); test: NMT activity assay (CPM fluorescence detection of free CoA), PvNMT; conditions: calculated as HsNMT IC50/PvNMT IC50

Compared with `Cc1c(CCOc2ccccc2-c2ccnc(N3CCNCC3)c2)c(C(=O)NCC(=O)O)nn1C` [Compound 8c, (1,5-Dimethyl-4-(2-(2-(2-(piperazin-1-yl)pyridin-4-yl)phenoxy)ethyl)-1H-pyrazole-3-carbonyl)glycine], `CC(=O)CNC(=O)c1nn(C)c(C)c1CCOc1ccccc1-c1ccnc(N2CCNCC2)c1` [Compound 8g, 1,5-Dimethyl-N-(2-oxopropyl)-4-(2-(2-(2-(piperazin-1-yl)pyridin-4-yl)phenoxy)ethyl)-1H-pyrazole-3-carboxamide] is higher in “SI (enzyme selectivity)” value: 0.8 for the first, 49.7 for the second.

First: Cc1c(CCOc2cccnc2-c2ccnc(N3CCNCC3)c2)c(C(=O)NCC(N)=O)nn1C [Compound 9d, N-(2-Amino-2-oxoethyl)-1,5-dimethyl-4-(2-((2′-(piperazin-1-yl)-[2,4′-bipyridin]-3-yl)oxy)ethyl)-1H-pyrazole-3-carboxamide]
Second: Cc1c(CCOc2cccnc2-c2ccnc(N3CCNCC3)c2)c(C(=O)NCC(=O)O)nn1C [Compound 9c, (1,5-Dimethyl-4-(2-((2′-(piperazin-1-yl)-[2,4′-bipyridin]-3-yl)oxy)ethyl)-1H-pyrazole-3-carbonyl)glycine]
The “SI (enzyme selectivity)” value of the first is higher: 60.9 for the first, 48.3 for the second.

Compared with `Cc1c(CCOc2ccccc2-c2ccnc(N3CCNCC3)c2)c(C(=O)Nc2cccnc2)nn1C` [Compound 8a, 1,5-Dimethyl-4-(2-(2-(2-(piperazin-1-yl)pyridin-4-yl)phenoxy)ethyl)-N-(pyridin-3-yl)-1H-pyrazole-3-carboxamide], `Cc1c(CCOc2ccccc2-c2ccnc(N3CCNCC3)c2)c(C(=O)NCCO)nn1C` [Compound 8h, N-(2-Hydroxyethyl)-1,5-dimethyl-4-(2-(2-(2-(piperazin-1-yl)pyridin-4-yl)phenoxy)ethyl)-1H-pyrazole-3-carboxamide] is higher in “SI (enzyme selectivity)” value: 4.9 for the first, 12.9 for the second.

Going from `Cc1c(CCOc2cccnc2-c2ccnc(N3CCNCC3)c2)c(C(=O)N2CCOCC2)nn1C` [Compound 9b, (1,5-Dimethyl-4-(2-((2′-(piperazin-1-yl)-[2,4′-bipyridin]-3-yl)oxy)ethyl)-1H-pyrazol-3-yl)(morpholino)methanone] to `Cc1c(CCOc2ccccc2-c2ccnc(N3CCNCC3)c2)c(C(=O)NCCN)nn1C` [Compound 8f, N-(2-Aminoethyl)-1,5-dimethyl-4-(2-(2-(2-(piperazin-1-yl)pyridin-4-yl)phenoxy)ethyl)-1H-pyrazole-3-carboxamide], the “SI (enzyme selectivity)” value falls from 35.8 to 1.2.

For `COC(=O)CNC(=O)c1nn(C)c(C)c1CCOc1ccccc1-c1ccnc(N2CCNCC2)c1` [Compound 8i, Methyl (1,5-Dimethyl-4-(2-(2-(2-(piperazin-1-yl)pyridin-4-yl)phenoxy)ethyl)-1H-pyrazole-3-carbonyl)glycinate], the “SI (enzyme selectivity)” value was 2.8.

In the case of `Cc1c(CCOc2ccc3ccccc3c2-c2ccnc(N3CCNCC3)c2)c(C(=O)N2CCOCC2)nn1C` [Compound 10b, (1,5-Dimethyl-4-(2-((1-(2-(piperazin-1-yl)pyridin-4-yl)naphthalen-2-yl)oxy)ethyl)-1H-pyrazol-3-yl)(morpholino)methanone], the “SI (enzyme selectivity)” value was 125 and 125.3.
With `Cc1c(CCOc2ccccc2-c2ccnc(N3CCNCC3)c2)c(C(=O)N2CCOCC2)nn1C` [Compound 8b, (1,5-Dimethyl-4-(2-(2-(2-(piperazin-1-yl)pyridin-4-yl)phenoxy)ethyl)-1H-pyrazol-3-yl)(morpholino)methanone] the “SI (enzyme selectivity)” value was > 31 and 31.8.

“And” between values parts separate entries of the source, which are not always exact repeats. Equal entries are not always repeated.
